{"sequences": {"note": "Chains of the proteins cited; added tags and fusions are not shown. Residues count along the entry.", "UniProt O75874, 2-414 R132H limits assumed": "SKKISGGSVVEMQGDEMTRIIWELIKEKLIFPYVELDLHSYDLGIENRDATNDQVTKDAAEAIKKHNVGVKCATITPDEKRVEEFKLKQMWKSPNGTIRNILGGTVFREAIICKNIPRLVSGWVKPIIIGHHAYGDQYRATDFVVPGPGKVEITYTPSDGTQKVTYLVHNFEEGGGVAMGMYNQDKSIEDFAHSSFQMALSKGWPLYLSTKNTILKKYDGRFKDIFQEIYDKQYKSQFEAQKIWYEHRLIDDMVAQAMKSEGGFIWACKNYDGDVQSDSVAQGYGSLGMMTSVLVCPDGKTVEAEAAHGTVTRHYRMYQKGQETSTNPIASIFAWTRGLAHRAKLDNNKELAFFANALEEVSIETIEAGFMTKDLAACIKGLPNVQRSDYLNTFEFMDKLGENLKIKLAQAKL"}, "source": "ChEMBL document CHEMBL5625159", "about": "“Challenges for the development of mutant isocitrate dehydrogenases 1 inhibitors to treat glioma” (Eur J Med Chem, 2023)", "target": "Isocitrate dehydrogenase [NADP] cytoplasmic (Homo sapiens, UniProt O75874, R132H)", "experiment": "Inhibition of human recombinant IDH1 R132H mutant expressed in Escherichia coli BL21 (DE3) cells in presence of alpha-ketoglutarate and NADPH by fluorescence based biochemical assay", "note": "pIC50: −log10 of the molar value.", "data": [{"smiles": "C[C@H](O)c1cccc(NC(=O)c2nn(Cc3ccc(F)cc3)c3c2CN(C(=O)c2ccc[nH]2)C[C@H]3C)c1", "values": [{"measurement": "pIC50", "result": 8.54}]}]}
